The values below come from patent US4699928A, “Fluoroallylamine derivatives” (Merrell Dow Pharmaceuticals Inc., priority 1986, dated 1987).

Structures are written as SMILES. pIC50: −log10 of the molar value.

The test system of one experiment is MAO-B. The following applies: cited from earlier work.
Another experiment relates to MAO. Description: Inhibition of MAO in vitro, partially purified rat brain mitochondria, 14C p-tyramine substrate. In kind it is biochemical. The note with it: tested as hydrochloride salt. From the text: Inhibition of MAO--In vitro testing
(A) The ability of a compound of Formula I to inhibit MAO can be determined in vitro by the method of A. Christmas et al., Br. J. Pharmacol., 45, 490 (1972) in partially purified mitochondria from rat brain using ^14 C p-tyramine as the substrate. The MAO inhibitory activity of a compound is expressed as the "IC50 " value, which is the molar concentration required to produce 50% inhibition of the enzyme.

Another experiment concerns MAO-A and MAO-B. The following applies: lower versus higher dosages; cited from earlier work.

By pIC50 is commonly meant the IC50 on a negative log10 scale, so that one unit is a factor of ten. For the molecule `C#CCN(C)[C@H](C)Cc1ccccc1` [L-deprenyl, reference compound], the “preferential inhibition of MAO-B” value with MAO-B was “MAO-B is preferentially inhibited”. The pIC50 in the experiment with MAO was 7.00. Further, the dose-dependence of selectivity entry in the experiment with MAO-A and MAO-B was “selective inhibitors at lower dosages, but are not selective inhibitors at higher dosages”.
Regarding `C#CCN(C)CCCOc1ccc(Cl)cc1Cl` [clorgyline, reference compound], in the experiment on MAO-A and MAO-B, the dose-dependence of selectivity result is “selective inhibitors at lower dosages, but are not selective inhibitors at higher dosages”.
